Results as given in patent US8084645B2, “4-phenylamino-benzaldoxime derivatives and uses thereof as mitogen-activated protein kinase kinase (MEK) inhibitors” (Chugai Seiyaku Kabushiki Kaisha, priority 2003, dated 2011).
pIC50: −log10 of the molar value.

System: Human colon cancer cell line HT-29
Assay: Determination of the activity of inhibiting cell proliferation (Cell Counting Kit-8)
Settings: read-out: Cell proliferation inhibitory activity (HT29) IC50; HT29, 2,000 cells/well, incubated four days

SMILES: O=C(NOCCO)c1cc(/C=N/OCCN2CCCC2=O)c(F)c(F)c1Nc1ccc(I)cc1F
- pIC50: 7.46
